Source: patent US20090304689A1, “METHODS FOR THE IDENTIFICATION OF POLYPEPTIDE ANTIGENS ASSOCIATED WITH DISORDERS INVOLVING ABERRANT CELL PROLIFERATION AND COMPOSITIONS USEFUL FOR THE TREATMENT OF SUCH DISORDERS” (priority 2001, published 2009)

Assays:
cynomolgus monkeys = experiment: Four-week intravenous toxicity study in female cynomolgus monkeys; type: in vivo, cynomolgus monkeys (Macaca fascicularis); settings: 2, 10 or 30 mg/kg i.v. once weekly for 4 weeks
Method: HERCEPTIN®-DM1 was administered to young adult female cynomolgus monkeys (Macaca fascicularis; Primate Products, Inc., Miami Fla.) once weekly for four weeks. The average weight of the monkeys was three kilograms (range from 2.7 to 3.4 kilograms). A total of eight monkeys, divided into four groups of two monkeys each, were utilized for the study. The dosages of HERCEPTIN®-DM 1 tested were 2, 10 and 30 mg/kg. A control group received vehicle only (an aqueous buffer (pH 5.0) containing sodium succinate (10 mM), sucrose (100 mg/ml) and TWEEN™ 20 (0.1%)) at the same dose volume as administered to the treated animals. The monkeys were analyzed for various toxicities, including, but not limited to, neurotoxicity and cardiotoxicity. […]
The test and control articles were administered over a 30 to 60 second time period by intravenous injection into an indwelling catheter inserted into the saphenous or cephalic vein, using a stainless steel dosing needle and syringe of appropriate size. […] Doses were calculated using the most recent body weights available. […]
Physical observations were performed twice pretest and once weekly during the study period. Body weights were recorded twice pretest, weekly during the study period and prior to termination. […]
After four weeks of treatment, all survivors were sacrificed. […] Cardiac and nerve tissues were collected from each animal and analyzed.

[1] = tested on: SK-BR-3 breast tumor cells; experiment: Cell proliferation of normally growing SK-BR-3 cells, 10% FBS (FIG. 6A); type: cell-based, human; settings: SK-BR-3 in 10% FBS, 3 days
SK-BR3 cells = experiment: Anti-proliferative effect / cytotoxicity on SK-BR-3 breast tumor cells (crystal violet, FIG. 4); type: cell-based, human; settings: SK-BR-3, 3 day incubation
Method: SK-BR3 cells, which express 3+level of HER2 on cell surface (about 2 million HER2 molecules/cell), were treated with HERCEPTIN®, HERCEPTIN®-DM1 conjugate, control mAb RITUXAN® or RITUXAN®-DM1 conjugates, and the effect of these treatments on cell proliferation was monitored. […] The RITUXAN®-DM1 conjugate required about 100 times higher concentration to achieve the same level of cell growth inhibition as HERCEPTIN®-DM1 conjugate.

Substance: HERCEPTIN®: HERCEPTIN® (huMAb4D5-8, rhuMAb HER2, U.S. Pat. No. 5,821,337) antibody
- cardiotoxicity (clinical evaluations, serum markers, heart light microscopy) (cynomolgus monkeys): no evidence of cardiotoxicity
- effect on cell proliferation [1]: modest reduction
- reduction in SK-BR-3 cell growth (SK-BR3 cells): 35%
